## Yeast mating assay 1: variants of the scFv Ab-14

From the AlphaSeq antibody data of Engelhart et al. 2022 (doi:10.1038/s41597-022-01779-4), copy in the FLAb collection.

Target: peptide PDVDLGDISGINAS, taken from heptad repeat 2 (HR2) of SARS-CoV-2 spike.

Each scFv is VH, a (GGGGS)3 linker, VL, as in the parent Ab-14, and differs from it in the CDRs of the heavy chain only.
VH: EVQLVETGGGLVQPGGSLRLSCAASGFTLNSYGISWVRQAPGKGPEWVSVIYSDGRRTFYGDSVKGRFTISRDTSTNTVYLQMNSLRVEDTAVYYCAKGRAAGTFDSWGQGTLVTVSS
VL: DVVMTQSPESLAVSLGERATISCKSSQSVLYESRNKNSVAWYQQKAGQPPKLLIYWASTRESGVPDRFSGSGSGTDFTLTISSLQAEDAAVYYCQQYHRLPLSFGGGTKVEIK

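The starting antibody came from a phage panning campaign against this peptide. Variants in AAYL49 differ from the parent at up to three CDR positions; double and triple changes were sampled at random. The scFvs were displayed on barcoded MATa yeast, the peptide on MATalpha yeast. Pairs that bind mate more often; barcode pairs of the diploids are counted by sequencing. The ratio of observed to expected reads was calibrated, replicate by replicate, on BCL2-family standards whose Kd was known from biolayer interferometry. There are three technical replicates.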

Variants are written as CDR1, CDR2 and CDR3 of the heavy chain (limits as in the source). Parent: GFTLNSYGIS, VIYSDGRRTFYGDSVK, GRAAGTFDS. This list gathers variants with a substitution at V64 (VH, numbered from residue 1). Each Kd is an estimate from the mating assay, the geometric mean of the replicates in which the pair was seen; lower is stronger. An entry "no signal" has no value in the source: the pair was not observed among the diploids in any replicate. This suggests poor binding but is not conclusive. In this assay the parent's reference entry averaged 4.4 nM; its copy inside this library read 13 µM (one replicate of three).

Variant GFTLNSYGIS | VIYSDGRRTFAGDSKK | NRAAGTFDS gave 180 µM (2 of 3 replicates). With GFTLNSYGIS | VIYSDGRRCFYGDIGK | GRAAGTFDS the result was no signal (0 of 3 replicates). Variant GFTLNSYGIS | VIYSDGRRTFYGDSRK | MRCAGTFDS showed no signal (0 of 3 replicates). With EFTLNSLGIS | VIYSDGRRTFYGDSIK | GRAAGTFDS the result was no signal (0 of 3 replicates). With PFLLNSYGIS | VIYSDGRRTFYGDSAK | GRAAGTFDS the result was 160 nM (3 of 3 replicates). Variant GFTLNSVGIS | VIYSDGRRTFYGDSHK | GRAAGTFDS showed 8.5 µM (2 of 3 replicates). Variant GFTLPSYGIS | VIYSDGRRTFYGDSTK | GRAAGTFDS showed 95 µM (1 of 3 replicates).

Variant GFTLNSYGIS | VCYSDGRRTFYGDVKK | GRAAGTFDS gave 430 µM (1 of 3 replicates). Variant GFTLNIYGIS | VIYYDGRRTFYGDSTK | GRAAGTFDS showed 1.6 µM (1 of 3 replicates). Variant GFTLNSYGIS | VIYSDGRRTFYGDSQK | GRAFGTFDS showed 38 µM (2 of 3 replicates). With GFTLGSYNIS | VIYSDGRRTFYGDSDK | GRAAGTFDS the result was 4.0 µM (3 of 3 replicates). For GFTLNSYGIS | VIYSDGRRTFYGDSWK | GRADGMFDS, the assay gave 59 µM (3 of 3 replicates). Variant GFTLNSYGIS | VTYSDGRRTFYGDQTK | GRAAGTFDS gave 14 µM (1 of 3 replicates). With GFTLNSYGIS | VIYSDGRRYFYGRSIK | GRAAGTFDS the result was 2.5 µM (1 of 3 replicates).

With GFTLNSYGID | VIYSDGRRTFYGDSGK | HRAAGTFDS the result was no signal (0 of 3 replicates). Variant GQTLNSYDIS | VIYSDGRRTFYGDSYK | GRAAGTFDS showed no signal (0 of 3 replicates). With GFTLNSYGIS | VIYSDGRRTFYRDSWK | GREAGTFDS the result was no signal (0 of 3 replicates). Variant GFTLNSFGIS | VIYSDGRRTFYMDSMK | GRAAGTFDS showed 400 nM (1 of 3 replicates). Variant GFDLNSYGIS | VIYSDWRRTFYGDSIK | GRAAGTFDS showed no signal (0 of 3 replicates). Variant GHTLNSYGIS | VIYSDGRRTFYGDSHK | GRAPGTFDS showed no signal (0 of 3 replicates). Variant GFTLNSNGIS | VIYSDGRRTFYGDSGK | GRAAGTFDS gave no signal (0 of 3 replicates).

With GFTLNSYNIS | VIYSDGRRGFYGDSMK | GRAAGTFDS the result was 220 nM (1 of 3 replicates). Variant NFTTNSYGIS | VIYSDGRRTFYGDSNK | GRAAGTFDS showed no signal (0 of 3 replicates). Variant GFTLNSYGIS | LIYSDGRRTFYGDSEK | GRAAGTFDS showed no signal (0 of 3 replicates). With GFTLNSYGIS | VIYSDKRRTFYGDSQK | GRAAGTFDS the result was no signal (0 of 3 replicates). With GFTLNSYGIS | VIYSDGRRPFYGDCIK | GRAAGTFDS the result was no signal (0 of 3 replicates). For GFTVNSYGIS | VIYSDGRRTFYPDSHK | GRAAGTFDS, the assay gave no signal (0 of 3 replicates). Variant GFTLNSWGIS | VIYSDGRRTFYGDSPY | GRAAGTFDS gave 6.0 µM (2 of 3 replicates).

Variant QFTLNSYGWS | VIYSDGRRTFYGDSTK | GRAAGTFDS showed 2.9 µM (1 of 3 replicates). Variant GFTLNSYGIS | VIYSDGQRTFYGDSCK | GRAGGTFDS showed 3.1 µM (3 of 3 replicates).

For reference, 2 entries of the list once more:

{"CDR-H1": "GFTLNSYGIS", "CDR-H2": "VCYSDGRRTFYGDVKK", "CDR-H3": "GRAAGTFDS", "apparent Kd": "430 µM", "replicates with signal": "1 of 3"}
{"CDR-H1": "GFTLNSYGIS", "CDR-H2": "VIYSDGRRYFYGRSIK", "CDR-H3": "GRAAGTFDS", "apparent Kd": "2.5 µM", "replicates with signal": "1 of 3"}

Three control strains display no target. For library AAYL49, 15% of the pairings with them gave a signal, with a median of 11 µM and one signal in twenty below 680 nM, so weak values seen in few replicates may be background.